This is an account of results in PMC3128695.

Assay [1] addresses His-PspAFL (full-length phage shock protein A) (E. coli) (UniProt P0AFM6). Description: SEC; single proteins alone: 50-μl samples of 30 μM PspAFL or PspA fragments (20 μM PspF1–275), Superose 6, 4 °C, 20 mM Tris–HCl pH 8.0, 50 mM NaCl, 15 mM MgCl2; apparent oligomeric forms from calibration with globular proteins. In general terms: Size exclusion chromatography separates by hydrodynamic size, large species first.

Assay [2] addresses His-PspA(1–186) (HD1–HD2–HD3) (E. coli) (UniProt P0AFM6). The assay is described as above.

By stoichiometry N is commonly meant a count of units in the complex or per binding partner. With “His-PspAFL (full-length phage shock protein A) (from UniProt P0AFM6 1-222) (natural protein)”, the stoichiometry N in assay [1] was determined as 90 subunits.
For the substance “His-PspA(1–186) (HD1–HD2–HD3) (from UniProt P0AFM6 1-186) (domain or fragment)”, the stoichiometry N in assay [2] was determined as 2 subunits.
